This is a selection; strong and weak results do not stand in their true shares. Results filed as inconclusive are left out. Some structures show a salt or complex split into parts, the way the source records it. The source made the active and inactive calls. The call rests on the fitted dose curve; in most records, active means well fitted cell-killing curve with a large enough effect; inconclusive means small, poorly fitted or top-dose-only effect, or effect the other way; inactive means flat fitted curve, though single readings scatter.
assay: GF-AFC viability counterscreen for inhibitors of alpha-synuclein gene (SNCA) expression; conditions: HEK-293-SNCA-luc viability, GF-AFC fluorescence, 24 h; at 57.1 µM (top of the series) unless noted; further: nearly all actives have a fitted effect of over 30% in size
Source text: Assay Submitter (PI): Daniel R. Scoles Ph.D.
Department of Neurology, University of Utah, Salt Lake City, Utah
Accumulation of alpha-synuclein is a main underlying pathological feature of Parkinson's disease (PD) and alpha-synucleinopathies, for which lowering expression of the alpha-synuclein gene (SNCA) is a potential therapeutic avenue. Using a cell-based luciferase reporter of SNCA expression we performed a quantitative high throughput screen (qHTS) of 155,885 compounds in dose response. The screening assay was generated using genome editing to insert the luciferase gene downstream and in frame of the SNCA gene in HEK-293 cells (1). A viability counterscreen using GF-AFC was used to eliminate cytotoxic and false positive compounds. After in silico analysis (clustering, removal of frequent hitter nuisance chemotypes), inhibitor compounds from the primary screen were selected for follow up and re-tested at 11-doses in the SNCA-luc cells (luciferase and GF-AFC confirmation), and in CMV-luc expressing cell line to flag general transcriptional repressors.
Described herein are the results of the GF-AFC viability counterscreen for SNCA inhibitors; inactivity (no decrease in fluorescence signal, not cytotoxic) is the desired output for this assay.
1. Dansithong, W., Paul, S., Scoles, D. R., Pulst, S. M., and Huynh, D. P. (2015) Generation of SNCA Cell Models Using Zinc Finger Nuclease (ZFN) Technology for Efficient High-Throughput Drug Screening. PLoS ONE 10, e0136930.
SEQUENCE No. (e.g., 1, 2, 3, etc.); […] (e.g., Cells, Incubation, Reagent, etc.); VALUE; DESCRIPTION
1; Cells; 4 uL; Dispense 1500 HEK-293-SNCA-luc cells/well into Greiner 1536-well white / solid bottom tissue culture treated plate. The plate was covered with metal lids with gas-exchange holes.
2; Incubate; 24 hours; Incubate at 37C, 5% CO2, 95% RH.
3; Compounds; 23 nL; Compounds and controls were transferred via a Kalypsys Pin Tool (Wako USA) equipped with a 1536-slotted pin array. The plate was covered with metal lids with gas-exchange holes.
4; Incubate; 24 hours; Incubate at 37C, 5% CO2, 95% RH.
5; Dispense; 1 uL; Dispense Gly-Phe-7-amino-4-trifluoromethylcoumarin (GF-AFC, prepared at 125 uM in PBS) was added. The plate was covered with metal lids with gas-exchange holes.
6; Incubate; 30 min; Incubate at 37C, 5% CO2.
7; Detector; Fluorescence; Measure fluorescence with ViewLux microplate reader (PerkinElmer) equipped with 405/10 excitation and 540/25 emission filters.
8; Dispense; 3 uL; Dispense ONE-Glo ([…]) lucifase detection reagent was added to each well. Plates were covered with metal lids with gas-exchange holes.
9; Incubate; 15 min; Incubate at room temperature.
10; Detector; Luminescence; Measure luminescence with ViewLux microplate reader (PerkinElmer) equipped with clear filters.
NOTES (numbers refer to sequence above)
1; HEK-293-SNCA-luc were cultured and suspended in phenol-red free DMEM (4.5 g/L glucose, 25 mM HEPES, cat #21063 (Thermo)).
3; Compounds were added to the assay plate in an 11-point intra plate dose response, 1:3 titration in DMSO with a final concentration range of […]. Vehicle-only plates, with DMSO being pin-transferred to every well, were inserted at the beginning of screening runs to confirm expected assay performance. Activity was normalized to wells containing medium only (-100% activity, full inhibition) and SNCA-luc cells treated with DMSO vehicle control (0% activity), contained on the same plate as test samples.
10; Signals were analyzed, and dose-response curves were fit using the Hill equation. Compounds in curve classes -1.1, -1.2, -2.1, -2.2 in the SNCA-luc assay were considered active. Compounds were eliminated from further consideration if also active (curve class -1.1, -1.2, -1.3, -1.4, -2.1, -2.2, -2.3, -2.4) in the GF-AFC cytotoxicity assay.

| Structure (SMILES) | activity change, negative = cytotoxicity |
| --- | --- |
| C/C1=C2N=C(/C=C3N=C(/C(C)=C4\[N-][C@@](C)([C@@H]5N=C1[C@](C)(CCC(=O)NC[C@@H](C)OP(=O)([O-])O[C@H]1[C@@H](O)[C@@H](n6cnc7cc(C)c(C)cc76)O[C@@H]1CO)[C@H]5CC(N)=O)[C@@](C)(CC(N)=O)[C@@H]4CCC(N)=O)[C@@](C)(CC(N)=O)[C@@H]\3CCC(N)=O)C(C)(C)[C@@H]/2CCC(N)=O.[C-]#N.[Co+3] | inactive: -26.4% [at 23.9 µM] |
| CCOP(=O)(CC)Oc1ccc([N+](=O)[O-])cc1 (stereo unspecified) | inactive: -20.3% |
| Cc1cccc([N+](=O)[O-])c1[N+](=O)[O-] | inactive: -19.4% |
| OCCSCCO | inactive: -18.4% [at 23.9 µM] |
| C/C1=C2N=C(/C=C3N=C(/C(C)=C4\N=C(C(CC(N)=O)C4(C)CCC(=O)NCC(C)OP(=O)([O-])OC4C(CO)OC(n5cnc6cc(C)c(C)cc65)C4O)C4(C)N=C1C(CCC(N)=O)C4(C)CC(N)=O)C(CCC(N)=O)C\3(C)C)C(CCC(N)=O)C/2(C)CC(N)=O.[C-]#N.[Co] (stereo unspecified) | inactive: -25.4% [at 23.9 µM] |
| O=[N+]([O-])c1cccc([N+](=O)[O-])c1 | inactive: -35.9% |
